Assay results: PubChem BioAssay (NCATS)
The list shows a part of the results, in another mix than the full data. Results filed as inconclusive are left out. Activity calls are given as the source filed them. The call rests on the fitted dose curve; in most records, active means well fitted curve in the direction sought with a large enough effect; inconclusive means small, poorly fitted or top-dose-only effect, or another doubt; inactive means no such curve, though single readings can be large; an effect the other way counts as inactive or inconclusive.

Experiments:
[1] = Quantitative High-Throughput drug screen in 47 multiple myeloma cell lines against the NCATS MIPE library collection: KMM1_JCRB cell viability assay (AID 1918960); conditions: KMM1 myeloma viability, CellTiter-Glo ATP luminescence, 48 h; at 45.8 µM (top of the series);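 further: 100% = DMSO-treated cells and 0% = medium-only wells; nearly all actives have a fitted effect of over 30% in size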
In short: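 Luminescence from CellTiter-Glo, taken after 5 min at room temperature, reports cellular ATP as viability. Cells (500 per well) had been treated 48 h at 37 °C with MIPE 4.0 compounds, scaled between DMSO and medium-only controls.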

[2] = Quantitative High-Throughput drug screen in 47 multiple myeloma cell lines against the NCATS MIPE library collection: Karpas417_ECACC cell viability assay (AID 1918961); conditions: Karpas417 myeloma viability, CellTiter-Glo ATP luminescence, 48 h; at 45.8 µM (top of the series);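 further: 100% = DMSO only wells and 0% = media only wells without cells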
In short: (§1)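 Approved and investigational drugs from MIPE 4.0 were added by pin tool to 500 cells per well. After 48 hours at 37C, ATP-based CellTiter-Glo luminescence indicated remaining viability.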

[3] = Quantitative High-Throughput drug screen in 47 multiple myeloma cell lines against the NCATS MIPE library collection: JIM3_ECACC cell viability assay (AID 1918963; further: potency means the concentration at half of the fitted maximal effect; nearly all actives have a fitted effect of over 35% in size); conditions: JIM3 myeloma viability, CellTiter-Glo ATP, 48 h
In short: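 Viability readout: CellTiter-Glo luminescence following 5 min room-temperature incubation with reagent. Prior exposure: 48 h, 37C, humidified 5% CO2, 500 cells per well.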

[4] = Quantitative High-Throughput drug screen in 47 multiple myeloma cell lines against the NCATS MIPE library collection: JIM1_ECACC cell viability assay (AID 1918964); conditions: JIM1 myeloma viability, CellTiter-Glo ATP luminescence, 48 h; at 45.8 µM (top of the series)
From the text: (§2) PI: Beverly A. Mock Ph.D.
(§3) Laboratory of Cancer Biology and Genetics,
(§4) Center for Cancer Research, National Cancer Institute,
(§5) National Institute of Health, Bethesda, Maryland
(§6) Drug resistance and disease progression are common in multiple myeloma (MM) patients, underscoring the need for new therapeutic combinations. […] We hypothesized that effective combinations would reduce MYC expression and enhance p16 activity. […] These preclinical data identify potentially useful drug combinations for evaluation in drug-resistant MM and reveal potential mechanisms of combined drug sensitivity.
(§7) Described herein is the primary MIPE qHTS used to cherrypick compounds. Validated compounds were then further tested for potential synergistic activiy.
[1] […]
(§8) 5; Detector; 425V; Luminescence; Viewlux PerkinElmer. […]
(§9) 1. […] Briefly, the corresponding myeloma cell lines were screened in 1,536-well plates with 500 cells, 5-uL per well for inhibition of cell viability (assessed by measuring ATP levels with CellTiterGlo). […]
(§10) 5. Signal was measured as median relative luminescence units on a ViewLux (PerkinElmer) multiplate reader. […]

[5] = Quantitative High-Throughput drug screen in 47 multiple myeloma cell lines against the NCATS MIPE library collection: INA6_PLB cell viability assay (AID 1918965; further: potency means the concentration at half of the fitted maximal effect; nearly all actives have a fitted effect of over 55% in size); conditions: INA6 myeloma viability, CellTiter-Glo ATP luminescence, 48 h
In short: as §1

[6] = Quantitative High-Throughput drug screen in 47 multiple myeloma cell lines against the NCATS MIPE library collection: JJN3_DSMZ cell viability assay (AID 1918966; further: potency means the concentration at half of the fitted maximal effect; nearly all actives have a fitted effect of over 50% in size); conditions: JJN3 myeloma cells viability, CellTiter-Glo ATP, 48 h
From the text: as §2, §3, §4, §5, §6, §7
[1] […]
as §8, §9, §10

[7] = Quantitative High-Throughput drug screen in 47 multiple myeloma cell lines against the NCATS MIPE library collection: H1112_PLB cell viability assay (AID 1918967; further: potency means the concentration at half of the fitted maximal effect; nearly all actives have a fitted effect of over 30% in size); conditions: H1112 myeloma cells viability, ATP luminescence, 48 h
From the text: as §2, §3, §4, §5, §6, §7
[1] […]
as §8, §9, §10

[8] = Quantitative High-Throughput drug screen in 47 multiple myeloma cell lines against the NCATS MIPE library collection: KMS27_JCRB cell viability assay (AID 1918970); conditions: KMS27 myeloma cells, CellTiter-Glo ATP viability, 48 h; at 45.8 µM (top of the series);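 further: 100% = DMSO-only wells and 0% = media-only wells without cells; nearly all actives have a fitted effect of over 30% in size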
From the text: as §2, §3, §4, §5, §6, §7
[1] […]
as §8, §9, §10

[9] = Quantitative High-Throughput drug screen in 47 multiple myeloma cell lines against the NCATS MIPE library collection: KMS12PE_JCRB cell viability assay (AID 1918972); conditions: KMS12PE myeloma viability, CellTiter-Glo ATP, 48 h; at 45.8 µM (top of the series);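 further: 100% = DMSO only wells and 0% = wells with media alone; nearly all actives have a fitted effect of over 30% in size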
In short: as §1

[10] = Quantitative High-Throughput drug screen in 47 multiple myeloma cell lines against the NCATS MIPE library collection: KMS26_JCRB cell viability assay (AID 1918975); conditions: KMS26 myeloma cells viability, CellTiter-Glo ATP, 48 h; further: potency means the concentration at half of the fitted maximal effect; nearly all actives have a fitted effect of over 45% in size
From the text: as §2, §3, §4, §5, §6, §7
[1] […]
as §8, §9, §10

CN(CCCl)CCCl
active: Potency [3] 20.9 µM | Potency [5] 11.8 µM | Potency [6] 26.4 µM | Potency [7] 20.9 µM | Potency [10] 20.9 µM
inactive: viability (% of DMSO) [1] 97.6% | viability (% of DMSO) [2] 104% | viability (% of DMSO) [4] 105% | viability (% of DMSO) [8] 90.2% | viability [9] 109%
